Reference: patent US20070149439A1, “Pituitary adenylate cyclase-activating polypeptide (PACAP) is an anti-mitogenic signal for selected neuronal precursors in vivo” (priority 2001, published 2007)

Test system: E15.5 rat cortex
Conditions: after ICV injection at E15.5, n=4/group; no difference to vehicle (P>0.05)
From the text: For BrdU immunohistochemistry, E15.5 and E18.5 tissues were fixed in 4% PFA, paraffin-embedded, and sectioned (4 μm) coronally. E20.5 tissues were perfusion-fixed in 2% PFA, cryoprotected, and sectioned at 15 μm. The tissues were immunostained. Then, the tissues were double-labeled with antibodies to neuron specific markers TuJ1 (1:200, Biogenesis, Poole, United Kingdom), tau (1:200, I. Fischer, Med. Coll. Penn.) and MAP2c (1:2000, I. Fischer) or glial markers, vimentin (1:4, Roche) and GFAP (1:1000, Sigma), visualizing with Texas Red for BrdU and FITC for phenotypic markers. TUNEL assay was done according to the manufacturer (Oncor, Gaithersburg, Md.) on sections adjacent to those used for BrdU.
Transuterine intracerebroventricular injection. Intraventricular injection was done as described. Following anesthesia (ketamine 30 mg per kg/xylazine 3 mg per kg) and laparotomy of E15.5 pregnant dams, 1 μl of vehicle or factors and 0.05% fast green was delivered into the embryonic lateral ventricle through the uterine wall, using drawn capillary pipettes. Dye enhancement of the ventricles indicated successful injections. After closure, dams were injected subcutaneously with markers of DNA synthesis, [^3H]dT (4 μCi/g, NEN) and BrdU (100 μg/g) at 3 h and sacrificed at 4 h. One embryonic hemisphere was assayed for [^3H]dT incorporation and the other for immunohistochemistry.

“Pituitary Adenylate Cyclase-Activating Polypeptide [PACAP]” gave a TUNEL apoptotic nuclei of 0.2±0.1 nuclei/section.
